# Results as given in patent publication US20240360179A1, “STAPLED PEPTIDES AND METHODS THEREOF” (FOG PHARMACEUTICALS, INC., priority 2021, published 2024).
# Chains of the proteins cited; added tags and fusions are not shown.
# UniProt P35222, whole entry: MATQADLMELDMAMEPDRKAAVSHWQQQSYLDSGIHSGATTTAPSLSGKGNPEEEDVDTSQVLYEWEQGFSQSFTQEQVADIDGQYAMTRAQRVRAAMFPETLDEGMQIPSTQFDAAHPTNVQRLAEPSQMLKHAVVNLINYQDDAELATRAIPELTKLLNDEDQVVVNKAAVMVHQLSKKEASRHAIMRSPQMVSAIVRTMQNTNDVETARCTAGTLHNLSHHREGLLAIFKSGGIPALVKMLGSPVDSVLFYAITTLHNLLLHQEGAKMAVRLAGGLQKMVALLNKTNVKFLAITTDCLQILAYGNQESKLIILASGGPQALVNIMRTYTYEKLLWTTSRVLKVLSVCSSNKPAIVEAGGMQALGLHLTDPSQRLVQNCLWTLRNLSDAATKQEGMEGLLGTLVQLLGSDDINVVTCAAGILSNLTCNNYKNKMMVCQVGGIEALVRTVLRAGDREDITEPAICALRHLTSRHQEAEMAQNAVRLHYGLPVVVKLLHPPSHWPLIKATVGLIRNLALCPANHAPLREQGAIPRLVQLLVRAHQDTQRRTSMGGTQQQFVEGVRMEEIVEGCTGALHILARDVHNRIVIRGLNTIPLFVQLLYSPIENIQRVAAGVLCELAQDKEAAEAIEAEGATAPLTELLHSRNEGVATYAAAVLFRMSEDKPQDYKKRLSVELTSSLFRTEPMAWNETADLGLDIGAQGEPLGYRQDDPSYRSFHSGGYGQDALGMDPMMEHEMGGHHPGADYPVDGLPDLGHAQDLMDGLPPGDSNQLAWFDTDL
# Legend:
# [1] = target: beta-catenin/TCF4 interaction (Homo sapiens, UniProt P35222); assay: cell-based; parameters: host or cells: HEK293; settings: NanoBRET Abs IC50 (uM)
# [2] = target: T1, full-length B-Catenin (Uniprot ID P35222) (Homo sapiens, UniProt P35222); assay: biochemical; format: binding; settings: beta-Catenin FP IC50 (nM), competition fluorescence polarization
# T1 construct: 10 nM full-length B-Catenin (Uniprot ID P35222)
SMILES,IC50 ([1]; absolute IC50),IC50 [2],IC50 [1]
"CC(=O)N1CCC[C@]12CC=CCCCC1(CCCC=CCCCOC(=O)N3CC[C@@]4(C3)NC(=O)[C@H](CC3CCN(CC3)C(=O)CC[C@@H](C(=O)N[C@@H](C)C(N)=O)NC(=O)[C@H](Cc3csc5ccccc35)NC(=O)[C@H](Cc3ccccc3C(F)(F)F)NC4=O)NC(=O)[C@H](Cc3ccccc3)NC(=O)[C@H](C)NC(=O)[C@H](C)NC(=O)[C@H](Cc3cccc(C(=O)O)c3)NC(=O)[C@H](CC(=O)O)NC1=O)NC(=O)[C@H](CC(C)(C)C)NC(=O)[C@H](CC(=O)O)NC2=O (relative stereo) [I-257, Ac-PL3-Asp-Npg-B5-Asp-3COOHF-Ala-Ala-Phe-4PipA*3-PyrS2-2F3MeF-BztA-GlnR*3-Ala-NH2]",–,< 50 nM,3 to 10 µM
"CC(=O)N1CCC[C@]12CC=CCCCC1(CCCC=CCCCOC(=O)N3CC[C@@]4(C3)NC(=O)[C@H](CCCCNC(=O)CC[C@@H](C(=O)N[C@@H](C)C(N)=O)NC(=O)[C@H](Cc3csc5ccccc35)NC(=O)[C@H](Cc3ccccc3C(F)(F)F)NC4=O)NC(=O)[C@H](Cc3ccccc3)NC(=O)[C@H](C)NC(=O)[C@H](C)NC(=O)[C@H](Cc3cccc(C(=O)O)c3)NC(=O)[C@H](CC(=O)O)NC1=O)NC(=O)[C@H](CC(C)(C)C)NC(=O)[C@H](CC(=O)O)NC2=O (relative stereo) [I-57, Ac-PL3-Asp-Npg-B5-Asp-3COOHF-Ala-Ala-Phe-Lys*3-PyrS2-2F3MeF-BztA-GlnR*3-Ala-NH2]",–,< 50 nM,1.5 to 3 µM
"CC(=O)N1CCC[C@]12CC=CCCCC1(CCCC=CCCCOC(=O)N3CC[C@@]4(C3)NC(=O)[C@H](CCCCNC(=O)CC[C@@H](C(=O)N[C@@H](CC(C)C)C(=O)N[C@@H](CO)C(N)=O)NC(=O)[C@H](Cc3csc5ccccc35)NC(=O)[C@H](Cc3ccccc3C(F)(F)F)NC4=O)NC(=O)[C@H](Cc3ccccc3)NC(=O)[C@H](C)NC(=O)C3(CC3)NC(=O)[C@H](Cc3cccc(C(=O)O)c3)NC(=O)[C@H](CC(=O)O)NC1=O)NC(=O)[C@H](CC(C)(C)C)NC(=O)[C@H](CC(=O)O)NC2=O (relative stereo) [I-139, Ac-PL3-Asp-Npg-B5-Asp-3COOHF-Cpg-Ala-Phe-Lys*3-PyrS2-2F3MeF-BztA-GlnR*3-Leu-Ser-NH2]",–,< 50 nM,1.5 to 3 µM

# More lines, now with the values ahead:
IC50 ([1]; absolute IC50),IC50 [2],IC50 [1],SMILES
> 10 µM,< 50 nM,–,"CC(=O)N1CCC[C@]12CC=CCCCC1(CCCC=CCCCOC(=O)N3CC[C@@]4(C3)NC(=O)[C@H](CCCCNC(=O)CC[C@@H](C(=O)N[C@@H](C)C(N)=O)NC(=O)[C@H](Cc3csc5ccccc35)NC(=O)[C@H](Cc3ccsc3)NC4=O)NC(=O)[C@H](Cc3ccccc3)NC(=O)C(C)(C)NC(=O)C(C)(C)NC(=O)[C@H](Cc3cccc(C(=O)O)c3)NC(=O)[C@H](CC(=O)O)NC1=O)NC(=O)[C@H](CC(C)(C)C)NC(=O)[C@H](CC(=O)O)NC2=O (relative stereo) [I-439, Ac-PL3-Asp-Npg-B5-Asp-3COOHF-Aib-Aib-Phe-Lys*3-PyrS2-3Thi-BztA-GlnR*3-Ala-NH2]"
3 to 10 µM,< 50 nM,–,"CC(=O)N1CCC[C@]12CC=CCCCC1(CCCC=CCCCOC(=O)N3CC[C@@]4(C3)NC(=O)[C@H](CCCCNC(=O)CC[C@@H](C(=O)N[C@@H](C)C(N)=O)NC(=O)[C@H](Cc3csc5ccccc35)NC(=O)[C@H](Cc3ccsc3)NC4=O)NC(=O)[C@H](Cc3ccccc3)NC(=O)[C@H](C)NC(=O)[C@H](CCC(=O)N3CCOCC3)NC(=O)[C@H](Cc3cccc(C(=O)O)c3)NC(=O)[C@H](CC(N)=O)NC1=O)NC(=O)[C@H](CC(C)(C)C)NC(=O)[C@H](CC(=O)O)NC2=O (relative stereo) [I-326, Ac-PL3-Asp-Npg-B5-Asn-3COOHF-MorphGln-Ala-Phe-Lys*3-PyrS2-3Thi-BztA-GlnR*3-Ala-NH2]"
